According to PubChem BioAssay AID461 (SRMLSC, 2006):
Only a part is listed here, and it is no random draw. Calls of active or inactive are those of the source.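 How the source made its calls: active means Her2 level under about 52% in both replicate screens, with viability over 70% of control (limit read from the data); inconclusive means Her2 under the limit in one screen only, or viability under 70%; inactive means Her2 level above the set limit.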

target: Receptor tyrosine-protein kinase erbB-2 (Homo sapiens) (UniProt P04626); assay: Her2 expression decrease, cell viability multiplex – SKBR3 breast tumor cells, AlphaScreen, ATP viability, primary screen (AID 461); conditions: 18-24 h, at 10 µM, hits give low values;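 further: lower value means less Her2 protein in the cells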

| Compound | Her2 level |
| --- | --- |
| O=P(Nc1nccs1)(c1ccccc1)c1ccccc1 | inactive: 92% |
| CCOP1(=S)c2c(C)nn(CCC#N)c2N=C(c2ccccc2F)N1C (stereo not drawn) | inactive: 128% |
| O=C(COc1ccccc1)OC1CN2CCC1CC2 (stereo not drawn) | inactive: 90% |
